Protein sequences, listed by entry. Tags and fused reporters are not part of them. Lines headed by an entry give the natural chain unless they say otherwise; changes in a name come on top.
UniProt P14842, whole entry: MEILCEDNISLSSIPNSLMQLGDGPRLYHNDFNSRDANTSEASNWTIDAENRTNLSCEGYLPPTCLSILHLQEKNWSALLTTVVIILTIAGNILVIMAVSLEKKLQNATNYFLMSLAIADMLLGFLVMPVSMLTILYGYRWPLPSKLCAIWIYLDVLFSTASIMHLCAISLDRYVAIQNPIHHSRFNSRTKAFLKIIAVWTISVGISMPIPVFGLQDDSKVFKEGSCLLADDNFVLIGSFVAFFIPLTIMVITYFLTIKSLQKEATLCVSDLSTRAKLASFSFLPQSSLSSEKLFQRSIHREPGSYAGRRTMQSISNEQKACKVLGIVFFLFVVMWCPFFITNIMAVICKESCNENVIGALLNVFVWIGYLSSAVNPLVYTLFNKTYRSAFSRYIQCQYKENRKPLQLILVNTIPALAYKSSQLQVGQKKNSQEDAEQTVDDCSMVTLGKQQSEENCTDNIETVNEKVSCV
UniProt P28335: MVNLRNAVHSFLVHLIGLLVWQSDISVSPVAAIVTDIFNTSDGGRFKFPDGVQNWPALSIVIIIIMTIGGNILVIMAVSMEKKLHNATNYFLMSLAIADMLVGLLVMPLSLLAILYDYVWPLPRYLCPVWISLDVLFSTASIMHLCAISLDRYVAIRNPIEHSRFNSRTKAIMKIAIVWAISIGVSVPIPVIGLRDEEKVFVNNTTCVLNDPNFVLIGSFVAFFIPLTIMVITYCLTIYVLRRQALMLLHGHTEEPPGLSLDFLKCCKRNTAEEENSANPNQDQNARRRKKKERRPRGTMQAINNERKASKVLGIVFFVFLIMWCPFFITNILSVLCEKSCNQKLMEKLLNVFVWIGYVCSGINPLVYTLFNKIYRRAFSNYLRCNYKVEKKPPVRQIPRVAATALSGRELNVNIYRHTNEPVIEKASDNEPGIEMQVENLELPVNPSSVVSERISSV

According to BindingDB's records for doi:10.1016/s0028-3908(97)00049-x (Roche Bioscience, 1997):

Key:
[1] = target: 5-hydroxytryptamine receptor 2A (Rattus norvegicus, UniProt P14842)
[2] = target: 5-hydroxytryptamine receptor 2C (Homo sapiens, UniProt P28335)

SMILES: Cc1nc2sccn2c(=O)c1CCN1CCC(=C(c2ccc(F)cc2)c2ccc(F)cc2)CC1
- Ki [1]: 0.29 nM

SMILES: CN1C[C@H](C(=O)N[C@]2(C)O[C@@]3(O)[C@@H]4CCCN4C(=O)[C@H](Cc4ccccc4)N3C2=O)C=C2c3cccc4[nH]cc(c34)C[C@H]21 [12'-hydroxy-2'-methyl-5'alpha-(phenylmethyl)ergotaman-3',6',18-trione]
- Ki [1]: 1.41 nM

SMILES: CN1C[C@@H](NS(=O)(=O)N(C)C)C[C@@H]2c3cccc4c3c(cn4C)C[C@H]21 [MESULERGINE]
- Ki [2]: 1.69 nM

SMILES: CNS(=O)(=O)Cc1ccc2[nH]cc(CCN(C)C)c2c1 [Sumax]
- Ki [1]: > 10000 nM
